The nature of test [1]: BSK_BT_Bcell_Proliferation: Viability Assessment in the BioMAP Diversity Plus: BT Assay for B cell Proliferation (AID 2284227). Conditions: primary human B cells with PBMC. Here is the method: BSK_BT is a cell-based, multiplexed-readout assay that uses B cell and peripheral blood mononuclear cells, a human vascular primary cell co-culture, with measurements taken at 24 hours after chemical dosing in a microplate: 96-well plate.BSK_BT_Bcell_Proliferation is an assay component measured in the BSK_BT assay. It measures protein content, a form of viability reporter, as detected with absorbance signals by Sulforhodamine staining technology.Data from the assay component BSK_BT_Bcell_Proliferation was analyzed at the endpoint, BSK_BT_Bcell_Proliferation, in the positive analysis fitting direction relative to DMSO as the negative control and baseline of activity. […]
(§1) The levels of cell surface (or secreted, indicated by the prefix "s") biomarker endpoints were measured by ELISA. Overt cytotoxicity to cells in confluent adherent cultures (all systems other than the BT system) was assessed by measuring total protein levels using sulforhodamine B (SRB) staining in parallel cultures at the time of biomarker measurements, indicated as SRB endpoints. For proliferation assays for adherent cell types, individual cell types are cultured at sub-confluence and relative cell numbers quantified by SRB staining at time points optimized for each system (48 h: 3C and CASM3C systems; 72 h: BT and HDF3CGF systems; 96 h: SAg system). […] Plates were read after 6 h.

Amino acid sequences for entries named in this document (tags omitted).
UniProt P01375, whole entry, looked up: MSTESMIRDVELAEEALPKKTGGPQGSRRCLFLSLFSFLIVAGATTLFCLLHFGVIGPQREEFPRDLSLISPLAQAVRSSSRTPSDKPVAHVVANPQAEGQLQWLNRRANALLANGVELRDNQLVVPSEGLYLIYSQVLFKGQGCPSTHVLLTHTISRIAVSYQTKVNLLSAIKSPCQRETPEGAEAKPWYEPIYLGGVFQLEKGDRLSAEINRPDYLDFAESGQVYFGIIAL

Read-out in test [2]: Interleukin 6 (IL6), IL6 (gene 3569)
The experiment in a line: BSK_BT_xIL6: BioMAP Diversity Plus: BT Assay for Interleukin 6 (IL6) Biomarker Activity (AID 2284228). To be noted: primary human B cells with PBMC. The method in brief: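 IL-6 secretion measured (Luminex xMAP) in human primary B cell + PBMC co-culture at 24 h of chemical exposure; DMSO served as negative control and activity baseline, with curves fitted for increase.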

Read-out in test [3]: Interleukin 17A (IL17A), IL17A (gene 3605)
The experiment in a line: BSK_BT_xIL17A: BioMAP Diversity Plus: BT Assay for Interleukin 17A (IL17A) Biomarker Activity (AID 2284229). To be noted: primary human B cells with PBMC. In outline: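 Human primary B cells plus PBMC, treated 24 h with chemicals; supernatant IL-17A quantified on Luminex xMAP beads. Gain of signal over DMSO control scored as activity.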

Read-out in test [4]: Tumor necrosis factor (Homo sapiens) (UniProt P01375)
The experiment in a line: BSK_BT_xTNFa: BioMAP Diversity Plus: BT Assay for Tumor necrosis factor alpha (TNF-alpha) Biomarker Activity (AID 2284230). To be noted: primary human B cells with PBMC. In outline: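 Endpoint derived in the positive direction versus DMSO vehicle. Cells: B cells together with PBMC, exposed 24 h before TNF-alpha in the medium was read on the Luminex xMAP platform.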

Read-out in test [5]: Vascular cell adhesion molecule 1 (VCAM1), VCAM1 (gene 7412)
Put plainly: BSK_MyoF_VCAM1: BioMAP Diversity Plus: MyoF Assay for Vascular cell adhesion molecule 1 (VCAM1) Biomarker Activity (AID 2284231). Conditions: primary human lung fibroblasts. The method in brief:
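VCAM-1 levels, lung fibroblasts, ELISA, 24 h exposure, increase scored relative to DMSO.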

Read-out in test [6]: Collagen I, COL1A1 (gene 1277)
Put plainly: BSK_MyoF_CollagenI: BioMAP Diversity Plus: MyoF Assay for Collagen I Biomarker Activity (AID 2284238). Conditions: primary human lung fibroblasts. Here is the method: BSK_MyoF is a cell-based, multiplexed-readout assay that uses lung fibroblasts, […], with measurements taken at 24 hours after chemical dosing in a microplate: 96-well plate.BSK_MyoF_CollagenI is an assay component measured in the BSK_MyoF assay. It measures Collagen I antibody related to regulation of gene expression using ELISA technology.Data from the assay component BSK_MyoF_CollagenI was analyzed at the endpoint, BSK_MyoF_CollagenI, in the positive analysis fitting direction relative to DMSO as the negative control and baseline of activity. Using a type of binding reporter, gain or loss-of-signal activity can be used to understand protein changes. […]
as §1

Read-out in test [7]: Collagen III, COL3A1 (gene 1281)
The experiment in a line: BSK_MyoF_CollagenIII: BioMAP Diversity Plus: MyoF Assay for Collagen III Biomarker Activity (AID 2284239). Conditions: primary human lung fibroblasts. In outline: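 Multiplexed cell assay in lung fibroblasts, harvested at 24 h post-dose. Collagen III detected by ELISA, with positive-direction fitting relative to DMSO vehicle.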

A short description of test [8]: UKN2_HCS_IMR90_cell_viability: Viability Assessment in the University of Konstanz (UKN) Leist Lab Neural Crest Cell Migration Assay in human induced IMR90 Pluripotent Stem Cells (UKN2) (AID 2284233).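 Further: cells exposed to compound for 24 h after a 24 h migration phase.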 How it is done:
UKN2_HCS_IMR90 is a cell-based, multiplexed-readout assay screening for neural crest cell migration and cell viability that uses IMR90 (neural crest cells differentiated from iPSC), a human embryo cell line, with measurements taken at […] after chemical dosing in a microplate: 96-well plate. UKN2, also known as cMINC, is an assay that uses IMR90 cells (neural crest cells differentiated from iPSC) as a model of neural crest cell migration. 24 hr after cell seeding, cell migration was initiated and proceeded for 24 hr. Then, chemical was applied, and after 24 hr of exposure migration and viability were assessed using high-content imaging of cells stained with calcein-AM and Hoechst H-33342.UKN2_HCS_IMR90_cell_viability is an assay component measured from the UKN2_HCS_IMR90 assay. It is designed to make measurements of enzyme activity, a form of viability reporter, as detected with Fluorescence intensity signals by HCS Fluorescent Imaging.The assay endpoint UKN2_HCS_IMR90_cell_viability was analyzed with bidirectional fitting relative to DMSO as the negative control and baseline of activity. Using a type of viability reporter, gain or loss-of-signal activity can be used to understand viability effects. […]
The wells are coated with PLO/laminin/fibronectin. […] Quantification of migration and viability is done by high content imaging analysis.

A short description of test [9]: CCTE_Mundy_HCI_Cortical_NOG_NeuronCount: CCTE's Neurite Outgrowth Assay in rat cortical cells for Neuron Count, Mundy Lab (AID 2284236; active means hit-call score of the fitted dose curve at least 0.9, where 1 is the maximum;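 further: neurons counted by imaging betaIII-tubulin and Hoechst stained cortical cells; cells exposed to compound for about 48 hours before fixation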). The method in brief: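 Read-out: neuron number by high-content imaging of betaIII-tubulin (Alexa Fluor-488) and Hoechst-labelled rat primary cortical cells.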
Test [10] in a line: CCTE_Mundy_HCI_Cortical_NOG_BPCount: CCTE's Neurite Outgrowth Assay in rat cortical cells for Branch Point Count, Mundy Lab (AID 2284237).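 On AC50: branch points counted about two days after chemical exposure.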 In outline: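 Measured 50.33 h after dosing, this morphology endpoint uses rat primary cortical cultures labelled for betaIII-tubulin. Branch points are quantified by high-content imaging, with DMSO as negative control and baseline.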

Where “and” joins values, the source holds several entries; their conditions need not be identical. Equal values may be shown once. This is a selection; strong and weak results do not stand in their true shares. Records with an inconclusive call do not appear. More than one record can exist for a structure, and the calls need not agree. Calls of active or inactive are those of the source. How the source made its calls, unless noted: active means hit-call score of the fitted dose curve at least 0.9, where 1 is the maximum; inactive means score below 0.9.

This is an account of results in PubChem BioAssay (EPA / NIEHS).

For the molecule `O=C(Cl)Oc1ccccc1`, the outcome in test [1], in test [2], in test [3], in [4], in test [5] and in test [6] was inactive. Further, in test [7], the result was inactive.
For the molecule `O=[N+]([O-])c1ccc([N+](=O)[O-])cc1`, the half-maximal activity concentration (AC50) (usually the midpoint of the concentration-response curve, whichever way the signal moves) is active: 20 µM in test [1], active: 11.8 µM in test [2] and active: 26.3 µM in test [4]. For the same molecule, the result in test [5], in test [6] and in [7] was inactive.
Consider `CC(C)OP(=O)(OC(C)C)SCCNS(=O)(=O)c1ccccc1`, for which the call in [8], in [9] and in test [10] was inactive.
Turning to `CC(C)OP(=S)(OC(C)C)SCCNS(=O)(=O)c1ccccc1`, the AC50 in [8] is active: 130 µM; in test [9], active: 71.1 µM; in test [10] it was active: 87.1 µM and active: 69.7 µM. For the same molecule, the call in test [9] was inactive.
